# Tested on: orthotopic human neurosphere-derived grade III glioma cells carrying an IDH1 R132H mutation (TS603 cell line)
# Test: Example 2: ivosidenib and focal radiation in orthotopic IDH1m glioma mouse model, survival end point
# Type: in vivo, mice
# Conditions: for % ILS (% increase in lifespan): versus median control lifespan
# [1] = combination therapy with focal radiation, Groups 4 and 5
smiles,measurement,setting,value
"N#Cc1ccnc(N2C(=O)CC[C@H]2C(=O)N(c2cncc(F)c2)[C@H](C(=O)NC2CC(F)(F)C2)c2ccccc2Cl)c1 [Ivosidenib, (S)—N—((S)-1-(2-Chlorophenyl)-2-(3,3-difluorocyclobutylamino)-2-oxoethyl)-1-(4-cyanopyridin-2-yl)-N-(5-fluoropyridin-3-yl)-5-oxopyrrolidine-2-carboxamide]",Median Lifespan,"Group 3, ivosidenib alone 150 mg/kg PO Q12H, from day of first treatment",21 days
same,% ILS (% increase in lifespan),"Group 3, ivosidenib alone",0%
same,Median Lifespan,"Group 4, ivosidenib 150 mg/kg PO Q12H + focal radiation (10 Gy total), simultaneous",45 days
same,Median Lifespan,"Group 5, focal radiation (10 Gy total) then ivosidenib 150 mg/kg PO Q12H, sequential",42 days
same,% ILS (% increase in lifespan),"Group 5, focal radiation then ivosidenib, sequential",100%
same,Increase in lifespan (in words),[1],substantial increases in lifespan
same,Increase in lifespan compared to Focal Radiation alone (Group 2),[1],comparable increases in lifespan
same,Antagonism of combination of ivosidenib and radiation therapy,"combination with radiation therapy, lifespan",no antagonism in vivo
